Assay results from PubChem BioAssay (NCI).
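Step 1: Grow cells in 96-well plates. Step 2: Expose to compound for 48 hours at 5 concentrations. Step 3: Interpolate endpoints linearly; if unreached, use highest concentration. GI50 marks 50% less growth. At the TGI there is no net growth.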

How the values were obtained:
Experiment in all cases: inhibition of tumour cell growth, NCI panel, 48 h; in the data active means GI50 below about 0.43 µM; inactive means the rest
[1] = system: 786-0 renal
[2] = system: A498 renal
[3] = system: A549 NSCLC
[4] = system: ACHN renal
[5] = system: BT-549 breast
[6] = system: CAKI-1 renal
[7] = system: CCRF-CEM leukemia
[8] = system: COLO 205 colon
[9] = system: DU-145 prostate
[10] = system: EKVX NSCLC
[11] = system: HCC-2998 colon
[12] = system: HCT-116 colon
[13] = system: HCT-15 colon
[14] = system: HL-60(TB) leukemia
[15] = system: HOP-62 NSCLC
[16] = system: HOP-92 NSCLC
[17] = system: HS 578T breast
[18] = system: HT29 colon
[19] = system: IGROV1 ovarian
[20] = system: K-562 leukemia
[21] = system: KM12 colon
[22] = system: LOX IMVI melanoma
[23] = system: M14 melanoma
[24] = system: MALME-3M melanoma
[25] = system: MCF7 breast
[26] = system: MDA-MB-231 breast
[27] = system: MDA-MB-435
[28] = system: MDA-N
[29] = system: MOLT-4 leukemia
[30] = system: NCI-H23 lung
[31] = system: NCI-H322M lung
[32] = system: NCI-H460 lung
[33] = system: NCI-H522 lung
[34] = system: NCI/ADR-RES ovarian
[35] = system: OVCAR-3 ovarian
[36] = system: OVCAR-4 ovarian
[37] = system: OVCAR-5 ovarian
[38] = system: OVCAR-8 ovarian
[39] = system: PC-3 prostate
[40] = system: RPMI-8226 leukemia
[41] = system: RXF 393 renal
[42] = system: SF-268 CNS
[43] = system: SF-295 CNS
[44] = system: SF-539 CNS
[45] = system: SK-MEL-2 melanoma
[46] = system: SK-MEL-28 melanoma
[47] = system: SK-MEL-5 melanoma
[48] = system: SK-OV-3 ovarian
[49] = system: SN12C renal
[50] = system: SNB-19 CNS
[51] = system: SNB-75 CNS
[52] = system: SR leukemia
[53] = system: SW-620 colon
[54] = system: T-47D breast
[55] = system: TK-10 renal
[56] = system: U251 CNS
[57] = system: UACC-257 melanoma
[58] = system: UACC-62 melanoma
[59] = system: UO-31 renal

C/C=C(\F)P(=O)(OCC)OCC
> 100 µM: TGI [1] | TGI [2] | TGI [3] | TGI [4] | TGI [5] | TGI [6] | TGI [7] | TGI [8] | TGI [9] | TGI [10] | TGI [11] | TGI [12] | TGI [13] | TGI [14] | TGI [15] | TGI [16] | TGI [17] | TGI [18] | TGI [19] | TGI [20] | TGI [21] | TGI [22] | TGI [23] | TGI [24] | TGI [25] | TGI [26] | TGI [27] | TGI [28] | TGI [29] | TGI [30] | TGI [31] | TGI [32] | TGI [33] | TGI [34] | TGI [35] | TGI [36] | TGI [37] | TGI [38] | TGI [39] | TGI [40] | TGI [41] | TGI [42] | TGI [43] | TGI [44] | TGI [45] | TGI [46] | TGI [47] | TGI [48] | TGI [49] | TGI [50] | TGI [51] | TGI [52] | TGI [53] | TGI [54] | TGI [55] | TGI [56] | TGI [57] | TGI [58] | TGI [59]
inactive: GI50 [1] > 100 µM | GI50 [2] > 100 µM | GI50 [3] > 100 µM | GI50 [4] > 100 µM | GI50 [5] > 100 µM | GI50 [6] > 100 µM | GI50 [7] > 100 µM | GI50 [8] > 100 µM | GI50 [9] > 100 µM | GI50 [10] > 100 µM | GI50 [11] > 100 µM | GI50 [12] > 100 µM | GI50 [13] > 100 µM | GI50 [14] > 100 µM | GI50 [15] > 100 µM | GI50 [16] > 100 µM | GI50 [17] > 100 µM | GI50 [18] > 100 µM | GI50 [19] > 100 µM | GI50 [20] > 100 µM | GI50 [21] > 100 µM | GI50 [22] > 100 µM | GI50 [23] > 100 µM | GI50 [24] > 100 µM | GI50 [25] > 100 µM | GI50 [26] > 100 µM | GI50 [27] > 100 µM | GI50 [28] > 100 µM | GI50 [29] > 100 µM | GI50 [30] > 100 µM | GI50 [31] > 100 µM | GI50 [32] > 100 µM | GI50 [33] > 100 µM | GI50 [34] > 100 µM | GI50 [35] > 100 µM | GI50 [36] > 100 µM | GI50 [37] > 100 µM | GI50 [38] > 100 µM | GI50 [39] > 100 µM | GI50 [40] > 100 µM | GI50 [41] > 100 µM | GI50 [42] > 100 µM | GI50 [43] > 100 µM | GI50 [44] > 100 µM | GI50 [45] > 100 µM | GI50 [46] > 100 µM | GI50 [47] > 100 µM | GI50 [48] > 100 µM | GI50 [49] > 100 µM | GI50 [50] > 100 µM | GI50 [51] > 100 µM | GI50 [52] > 100 µM | GI50 [53] > 100 µM | GI50 [54] > 100 µM | GI50 [55] > 100 µM | GI50 [56] > 100 µM | GI50 [57] > 100 µM | GI50 [58] > 100 µM | GI50 [59] > 100 µM
